Results published in patent US20060122177A1.
Where two headings read alike, the source gives them in different places.

By UniProt entry, the sequences of proteins in these tests, tags left out.
UniProt P61169, whole entry: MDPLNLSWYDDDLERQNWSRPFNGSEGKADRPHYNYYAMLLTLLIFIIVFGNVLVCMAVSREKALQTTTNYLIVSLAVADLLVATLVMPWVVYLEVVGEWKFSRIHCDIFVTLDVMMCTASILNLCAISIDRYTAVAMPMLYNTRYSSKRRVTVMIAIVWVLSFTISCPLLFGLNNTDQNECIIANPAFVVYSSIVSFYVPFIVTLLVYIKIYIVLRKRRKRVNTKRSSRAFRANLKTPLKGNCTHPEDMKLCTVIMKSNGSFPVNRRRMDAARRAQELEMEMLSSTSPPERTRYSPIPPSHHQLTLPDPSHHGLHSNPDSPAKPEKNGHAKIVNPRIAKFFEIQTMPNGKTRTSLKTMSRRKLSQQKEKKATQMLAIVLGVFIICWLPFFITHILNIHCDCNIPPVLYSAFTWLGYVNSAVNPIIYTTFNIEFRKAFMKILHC
UniProt P31652, whole entry: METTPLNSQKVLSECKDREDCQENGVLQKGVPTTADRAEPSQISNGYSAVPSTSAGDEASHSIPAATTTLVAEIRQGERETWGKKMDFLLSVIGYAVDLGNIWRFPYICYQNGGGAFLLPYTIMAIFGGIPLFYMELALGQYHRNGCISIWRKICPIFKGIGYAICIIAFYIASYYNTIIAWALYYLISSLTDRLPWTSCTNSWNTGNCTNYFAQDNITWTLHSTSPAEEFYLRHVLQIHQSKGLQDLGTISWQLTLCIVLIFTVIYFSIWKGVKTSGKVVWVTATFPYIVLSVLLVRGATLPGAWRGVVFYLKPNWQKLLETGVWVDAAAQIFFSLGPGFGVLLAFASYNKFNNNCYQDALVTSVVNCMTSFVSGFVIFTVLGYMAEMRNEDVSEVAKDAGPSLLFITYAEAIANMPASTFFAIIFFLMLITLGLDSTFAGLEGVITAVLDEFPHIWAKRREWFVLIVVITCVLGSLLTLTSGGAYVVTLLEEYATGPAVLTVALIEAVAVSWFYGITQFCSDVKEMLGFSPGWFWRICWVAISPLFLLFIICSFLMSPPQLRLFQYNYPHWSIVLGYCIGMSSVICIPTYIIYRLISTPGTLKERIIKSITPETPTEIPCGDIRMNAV

How the values were obtained:
dopamine-D2 receptors = dopamine-D2 receptors (Rattus norvegicus, UniProt P61169); test: In vitro affinity for dopamine-D2 receptors ([3H]-spiroperidol receptor binding assay)
Description: In Vitro Affinity for Dopamine-D2 Receptors Affinity of the compounds for dopamine-D2 receptors was determined using the receptor binding assay described by 1. Creese, R. Schneider and S. H. Snyder: “[^3H]-Spiroperidol labels dopamine receptors in rat pituitary and brain”, Eur.J.Pharmacol., 46, 377 - 381, 1977.
(§1) The affinity of the compounds of the invention for dopamine-D2 receptors and serotonine reuptake sites was determined as described above. From the binding affinity measured for a given compound of formula (1), one can estimate a theoretical lowest effective dose. At a concentration of the compound equal to twice the measured Ki-value, 100% of the receptors likely will be occupied by the compound. Converting that concentration to mg of compound per kg of patient yields a theoretical lowest effective dose, assuming ideal bioavailability. Pharmacokinetic, pharmacodynamic, and other considerations may alter the dose actually administered to a higher or lower value. The dosage expediently administered is 0.001-1000 mg/kg, preferably 0.1-100 mg/kg of patient's bodyweight.

serotonin reuptake sites = serotonin reuptake sites (Rattus norvegicus, UniProt P31652); test: In vitro affinity for serotonin reuptake sites ([3H]-paroxetine binding assay)
Description: Affinity of the compounds for serotonin reuptake sites was determined using the receptor binding assay described by E. Habert et al.,: “Characterisation of [^3H]-paroxetine binding to rat cortical membranes”, Eur.J.Pharmacol., 118, 107 - 114, 1985.
as §1

Row | Dopamine-D2 pKi (dopamine-D2 receptors; tested form: fumarate) | 5-HT reuptake pKi (serotonin reuptake sites; tested form: fumarate) | Dopamine-D2 pKi (dopamine-D2 receptors) | 5-HT reuptake pKi (serotonin reuptake sites) | SMILES | also measured
1 | 8.4 | 7.5 |  |  | CNCCON=C(CCCCN1CCN(c2cccc3c2OCCO3)CC1)c1ccc(C(F)(F)F)cc1 | 
2 |  |  | 8.3 | 8.3 | COc1ccccc1N1CCN(CCCCCCC(=NOCCN)c2ccc(C(F)(F)F)cc2)CC1 | 
3 | 8.3 | 8.0 |  |  | NCCON=C(CCCCCN1CCN(c2cccc3c2OCCO3)CC1)c1ccc(C(F)(F)F)cc1 | 

Continued, compound first:

Row | SMILES | Dopamine-D2 pKi (dopamine-D2 receptors; tested form: fumarate) | 5-HT reuptake pKi (serotonin reuptake sites; tested form: fumarate) | Dopamine-D2 pKi (dopamine-D2 receptors) | 5-HT reuptake pKi (serotonin reuptake sites) | also measured
4 | CC(C)Oc1ccccc1N1CCN(CCCC(=NOCCN)c2ccc(C(F)(F)F)cc2)CC1 | 8.1 | 7.0 |  |  | 
5 | NCCO/N=C(\CCCCN1CCN(c2cccc3c2OCCO3)CC1)c1ccc(C(F)(F)F)cc1 |  |  |  |  | Dopamine-D2 pKi (dopamine-D2 receptors; tested form: trihydrochloride): 8.3; 5-HT reuptake pKi (serotonin reuptake sites; tested form: trihydrochloride): 8.2
6 | NCCON=C(CCCCCCN1CCN(c2cccc3c2OCCO3)CC1)c1ccc(C(F)(F)F)cc1 | 8.4 | 8.5 |  |  | 
7 | NCCON=C(CCCCN1CCN(c2cccc3[nH]c(=O)oc23)CC1)c1ccc(C(F)(F)F)cc1 |  |  | 8.2 | 8.3 | 
8 | COc1ccccc1N1CCN(CCCC(=NOCCN)c2ccc(F)cc2)CC1 |  |  | 8.6 | 7.3 | 
9 | NCCON=C(CCCCN1CCN(c2cccc3ccoc23)CC1)c1ccc(C(F)(F)F)cc1 |  |  | 6.6 | 8.3 | 
